Values joined by “and” are separate entries in the source; they are usually repeats but may differ in a detail not shown here. Equal values may be shown once. A value given as a limit tells only on which side of the number the result lay.

By UniProt entry, the sequences of proteins in these tests, tags left out. Residues count along the entry.
UniProt P11473, 127-423 limits assumed: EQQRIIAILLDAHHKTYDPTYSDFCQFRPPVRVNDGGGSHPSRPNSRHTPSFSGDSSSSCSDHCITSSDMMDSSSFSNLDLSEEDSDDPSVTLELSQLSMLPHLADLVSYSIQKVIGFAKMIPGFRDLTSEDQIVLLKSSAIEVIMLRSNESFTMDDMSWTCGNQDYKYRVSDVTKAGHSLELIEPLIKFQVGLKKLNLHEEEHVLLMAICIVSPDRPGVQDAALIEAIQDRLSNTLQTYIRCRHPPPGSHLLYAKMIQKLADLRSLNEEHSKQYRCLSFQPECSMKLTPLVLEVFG

We go through 24 molecules from patent US20060094778A1, “Vesicant treatment with phenyl-phenyl type vitamin d receptor modulators” (published 2006).

In one data set the target is RXR-VDR heterodimer (Homo sapiens, UniProt P11473). Description: RXR-VDR heterodimerization assay (SaOS-2 cells). Conditions: read-out: RXR-VDR heterodimer EC50, Gal4-RXR-DEF, VP16-VDR-LBD and pFR-LUC reporter, luciferase.
The test system of the next data set is female DBF mice. Description: Mouse hypercalcemia assay. Conditions: orally via gavage for 6 days; serum ionized calcium 6 hours after the last dosing; six day hypercalcemia test.
A further data set concerns KERtr cells. Description: Keratinocyte proliferation assay. Conditions: read-out: Kera. Prolif. IC50, 72 hr, BrdU incorporation. For orientation: Incorporation of labelled thymidine or its analogues reports DNA synthesis.
A further data set addresses VDR (Homo sapiens, UniProt P11473). Description: VDR CTF Caco-2 cell co-transfection assay. Conditions: read-out: VDR EC50 (nM) (Caco-2 cells); Caco-2 cells transfected with pGal4-VDR-LBD and pFRLuc; luciferase; surrogate for in vivo calcemic activity.

For `CCC(CC)(c1ccc(CCC(=O)C(C)(C)C)c(C)c1)c1ccc(C(=O)O)c(C)c1`, the EC50 at RXR-VDR heterodimer is 396 nM. In addition, the “Mouse Hypercal” value with female DBF mice was greater than 3000 µg/kg/day.
For `CCC(CC)(c1ccc(OCC(O)CO)c(C)c1)c1ccc(OCC(O)C(C)(C)C)c(C)c1` (stereo not drawn), the “Mouse Hypercal” value with female DBF mice is 20 µg/kg/day.
In the case of `CCC(CC)(c1ccc(OCC(O)C(C)(C)C)c(C)c1)c1ccc(C(=O)N[C@H](C)C(=O)O)c(C)c1` (stereo partly drawn), in the data set on KERtr cells, the IC50 came out at 25 nM. Also, the “Mouse Hypercal” value in the data set on female DBF mice was less than 300 µg/kg/day. The EC50 at VDR was 303 nM.
On to `CCC(CC)(c1ccc(OCC(=O)C(C)(C)C)c(C)c1)c1ccc(C(=O)NCCS(C)(=O)=O)c(C)c1`, for which the “Mouse Hypercal” value in the data set with female DBF mice was greater than 5000 µg/kg/day.
For the molecule `CCC(CC)(c1ccc(CNCCS(C)(=O)=O)c(C)c1)c1ccc(OCC(=O)C(C)(C)C)c(C)c1`, the EC50 was 22 nM and 30 nM at RXR-VDR heterodimer; 1010 nM on VDR. Also, the “Mouse Hypercal” value in the data set with female DBF mice was 3000 µg/kg/day.
`CCC(CC)(c1ccc(OCC(=O)C(C)(C)C)c(C)c1)c1ccc(OC[C@H](O)C(C)(C)C)c(C)c1`: in the data set on female DBF mice, the “Mouse Hypercal” value is 1000 µg/kg/day.
With `CCC(CC)(c1ccc(CCC(=O)N(C)C)c(C)c1)c1ccc(OCC(=O)C(C)(C)C)c(C)c1`, the IC50 in the data set on KERtr cells worked out at 18 nM. Also, the EC50 at VDR is 63 nM.
With 1α,25-dihydroxyvitamin D3, in the data set on female DBF mice, the “Mouse Hypercal” value is 0.06 µg/kg/day.
Consider `CCC(CC)(c1ccc(OCC(=O)C(C)(C)C)c(C)c1)c1ccc(C(=O)O)c(C)c1`, for which the IC50 in the data set on KERtr cells stood at 1000 nM. Besides, the “Mouse Hypercal” value with female DBF mice was greater than 3000 µg/kg/day. Besides, at VDR, the EC50 was 990 nM.
In the case of `CCC(CC)(c1ccc(OCC(O)C(C)(C)C)c(C)c1)c1ccc(C(=O)NC(C)(C)C(=O)O)c(C)c1` (single isomer, unassigned), the IC50 with KERtr cells is 3 nM. Besides, the “Mouse Hypercal” value in the data set with female DBF mice is 300 µg/kg/day. The EC50 on VDR was 101 nM.
On to `CCC(CC)(c1ccc(C(=O)O)c(C)c1)c1ccc(OCC(O)C(C)(C)C)c(Cl)c1` (racemic), for which the EC50 on RXR-VDR heterodimer is 266 nM and 137 nM; at VDR it was 863 nM.
On to `CCC(CC)(c1ccc(C(=O)O)cc1)c1ccc(OCC(=O)C(C)(C)C)c(C)c1`, for which the “Mouse Hypercal” value in the data set on female DBF mice was 6000 µg/kg/day. Besides, the EC50 on VDR is 935 nM.
In the case of `CCC(CC)(c1ccc(CCC(=O)O)c(C)c1)c1ccc(OCC(=O)C(C)(C)C)c(C)c1`, in the data set with KERtr cells, the IC50 was 2 nM. The “Mouse Hypercal” value with female DBF mice is 10 µg/kg/day. Further, at VDR, the concentration giving a half-maximal response (EC50) was 300 nM.
On to `CCC(CC)(c1ccc(CCC(=O)N(C)C)c(C)c1)c1ccc(OCC(O)C(C)(C)C)c(C)c1` (stereo not drawn), for which the EC50 at RXR-VDR heterodimer is 1 nM; at VDR it was 35 nM. For the same molecule, the IC50 in the data set on KERtr cells is 330 nM. Besides, in the data set with female DBF mice, the “Mouse Hypercal” value is 100 µg/kg/day.
Turning to `CCC(CC)(c1ccc(/C=C/C(=O)N(C)C)c(C)c1)c1ccc(OCC(O)C(C)(C)C)c(C)c1` (stereo not drawn), the EC50 on RXR-VDR heterodimer and on VDR was 4 nM each time.
As for `CCC(CC)(c1ccc(OC[C@@H](O)C(C)(C)C)c(C)c1)c1ccc(C(=O)NCCS(C)(=O)=O)c(C)c1`, the “Mouse Hypercal” value in the data set on female DBF mice is 3000 µg/kg/day.
On to `CCC(CC)(c1ccc(OC[C@@H](O)C(C)(C)C)c(C)c1)c1ccc(C(=O)NCC(=O)O)c(C)c1`, for which the EC50 at RXR-VDR heterodimer was 3 nM; at VDR, 368 nM.
Take `CCC(CC)(c1ccc(OCC(=O)C(C)(C)C)c(C)c1)c1ccc(OCC(=O)C(C)(C)C)c(C)c1`: the “Mouse Hypercal” value in the data set with female DBF mice was 1000 µg/kg/day.
As to `CCC(CC)(c1ccc(OCC(O)C(C)(C)C)c(C)c1)c1ccc(C(=O)NS(C)(=O)=O)c(C)c1` (stereo not drawn), in the data set on female DBF mice, the “Mouse Hypercal” value is 100 µg/kg/day. On VDR, the concentration giving a half-maximal response (EC50) was 3000 nM.
For `CCC(CC)(c1ccc(OC(C)C(O)C(C)(C)C)c(C)c1)c1ccc(C(=O)O)c(C)c1` (racemic), the EC50 on RXR-VDR heterodimer was 171 nM and 337 nM; on VDR, 72 nM. Moreover, in the data set with KERtr cells, the IC50 was determined as 240 nM.
As to `CCC(CC)(c1ccc(CCC(O)C(C)(C)C)c(C)c1)c1ccc(C(=O)O)c(C)c1` (racemic), the EC50 on RXR-VDR heterodimer was 9 nM; at VDR, 920 nM.
Regarding `CCC(CC)(c1ccc(C(=O)O)cc1)c1ccc(OCC(O)C(C)(C)C)c(Cl)c1` (racemic), the IC50 in the data set with KERtr cells amounted to 40 nM.
Turning to `CCC(CC)(c1ccc(COCC(=O)O)c(C)c1)c1ccc(OCC(O)C(C)(C)C)c(C)c1` (single isomer, unassigned), in the data set on KERtr cells, the IC50 came to 6 nM. The “Mouse Hypercal” value in the data set on female DBF mice was less than 300 µg/kg/day. Also, the 50% effective concentration (EC50) on VDR is 418 nM.
In the case of `CCC(CC)(c1ccc(OCC(O)C(C)(C)C)c(C)c1)c1ccc(C(=O)O)c(Cl)c1` (racemic), the EC50 on RXR-VDR heterodimer is 302 nM and 204 nM; on VDR, 979 nM. Moreover, the IC50 in the data set with KERtr cells was 508 nM.

By EC50 is commonly meant the concentration that produces a half-maximal response.
